In patent US20120308537A1, “Use Of Collagen Type VII For Maintaining And Re-Inducing Osteogenic Abilities Of Mesenchymal Stem Cells” (UNIVERSITY OF SOUTHERN CALIFORNIA, priority 2009, published 2012):

Experiments:
[1] = system: ectopic osteogenesis induction; test: ALP assay of ectopic osteogenesis induction, intramuscular implantation in rat; assay type: in vivo; conditions: 4 weeks
Description: (§1) High concentration of BMP-2 was used as positive control. The negative control was carrier only, which consisted of collagen sponge (bovine). The samples were administered to rat via intramuscular implantation on ectopic sites. The experiment lasted for 4 weeks. Two different preparations (C7 and C7′) were tested. The test dosages were: 10, 20 and 40 μg. The results were analyzed by alkaline phosphotase assay (ALP) and histology for bone formation.

[2] = system: ectopic osteogenesis induction; test: Histology analysis of ectopic osteogenesis induction (bone formation), intramuscular implantation in rat; assay type: in vivo; conditions: 4 weeks
Description: as §1

[3] = 1 ug BMP-2 alone (0 ug C7), Rat A
[4] = 3 ug BMP-2 alone (0 ug C7′), Rat B, positive control

B1: BMP-2: bone morphogenetic protein 2; high concentration used as positive control (protein, UniProt P12643 283-396, looked up)
Bone morphogenetic protein 2: QAKHKQRKRLKSSCKRHPLYVDFSDVGWNDWIVAPPGYHAFYCHGECPFPLADHLNSTNHAIVQTLVNSVNSKIPKACCVPTELSAISMLYLDENEKVVLKNYQDMVVEGCGCR
[1]; [3]
  ALP: 0.163
  ALP/Pro: 0.877
[1]; [4]
  ALP: 0.476
[1]; 3 ug BMP-2 alone (0 ug C7′), Rat B
  ALP/Pro: 3.571
[2]; [3]
  Bone score: 0
[2]; [4]
  Bone score: 4
